The target in this assay is Protein skinhead-1 (Caenorhabditis elegans) (UniProt P34707). As to the kind of experiment: SKN-1 inhibitor hit potency, dose response, fluorescence ratio readout (AID 624474). Conditions: SKN-1 inhibitor fluorescence ratio assay.

By UniProt entry, the sequences of proteins in these tests, tags left out. Where a name states a change or a piece, a line headed by the entry shows the natural chain unless it says otherwise.
UniProt P34707: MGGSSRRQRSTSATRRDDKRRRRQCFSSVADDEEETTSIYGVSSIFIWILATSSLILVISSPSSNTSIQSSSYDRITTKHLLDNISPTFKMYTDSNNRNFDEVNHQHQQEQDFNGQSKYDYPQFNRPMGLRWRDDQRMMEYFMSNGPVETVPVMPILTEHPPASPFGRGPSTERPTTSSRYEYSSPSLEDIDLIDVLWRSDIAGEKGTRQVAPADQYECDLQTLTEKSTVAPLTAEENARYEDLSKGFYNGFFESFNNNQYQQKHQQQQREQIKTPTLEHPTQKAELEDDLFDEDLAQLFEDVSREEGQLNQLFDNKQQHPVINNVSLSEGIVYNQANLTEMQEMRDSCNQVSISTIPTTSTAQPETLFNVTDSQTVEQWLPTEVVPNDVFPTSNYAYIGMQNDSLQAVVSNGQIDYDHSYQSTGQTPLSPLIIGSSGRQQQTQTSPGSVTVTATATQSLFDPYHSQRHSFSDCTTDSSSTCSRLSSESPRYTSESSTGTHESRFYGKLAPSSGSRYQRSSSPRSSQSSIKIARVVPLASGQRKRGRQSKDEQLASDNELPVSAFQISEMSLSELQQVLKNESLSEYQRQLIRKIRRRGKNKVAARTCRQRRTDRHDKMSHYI

Activity calls are given as the source filed them.

For two compounds, IC50 results are on record in PubChem BioAssay AID624474 (Sanford-Burnham Center for Chemical Genomics, 2012).

What is called IC50 is the concentration at which inhibition is half-maximal. With `CC1=CC2OC3CC4OC(=O)C=CC=CC(C(C)O)OCC(O)C5(C)OC5C(=O)OCC2(CC1O)C4(C)C31CO1` (configuration not stated), the IC50 was inactive: > 100 µM.
To `CC(=O)OC1C(=O)OCC23CCC4(C)OC4C2OC2CC(OC(=O)C=CC=CC(=O)OCCC1C)C3(C)C21CO1` (configuration not stated) belongs inactive: > 100 µM.
